Protein sequences, listed by entry. Tags and fused reporters are not part of them.
UniProt P20309, whole entry, looked up: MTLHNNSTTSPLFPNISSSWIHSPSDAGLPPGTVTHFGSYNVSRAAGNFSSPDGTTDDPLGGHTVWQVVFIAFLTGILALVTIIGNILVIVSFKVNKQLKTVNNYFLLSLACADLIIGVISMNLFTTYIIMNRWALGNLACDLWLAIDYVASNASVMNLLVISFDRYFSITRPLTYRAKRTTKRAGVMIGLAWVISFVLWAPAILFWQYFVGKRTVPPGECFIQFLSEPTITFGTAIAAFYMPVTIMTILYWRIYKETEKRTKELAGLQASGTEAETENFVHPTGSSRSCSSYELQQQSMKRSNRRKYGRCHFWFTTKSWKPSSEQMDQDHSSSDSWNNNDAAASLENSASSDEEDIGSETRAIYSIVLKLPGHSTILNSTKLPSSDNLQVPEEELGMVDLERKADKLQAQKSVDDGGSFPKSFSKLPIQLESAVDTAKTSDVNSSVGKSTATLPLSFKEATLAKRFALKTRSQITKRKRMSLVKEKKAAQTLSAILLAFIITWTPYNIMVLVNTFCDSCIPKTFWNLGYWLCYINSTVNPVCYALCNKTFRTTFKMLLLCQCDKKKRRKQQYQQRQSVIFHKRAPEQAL

According to patent US7122558B2 (priority 2000, dated 2006):

Biological target: human muscarinic receptors M3 (Homo sapiens, UniProt P20309)
Assay: binding of [3H]-NMS to human muscarinic receptors M3 (CHO-K1 membranes)
Details: inhibition of [3H]-NMS binding, compound at 1.00E−08 M (10 nM), 25° C

C=CCC(O)(C(=O)O[C@H]1C[N+]2(CCCc3cccs3)CCC1CC2)c1cccs1.O=C([O-])C(F)(F)F (stereo partly shown)
% INHIBITION concentration: 1.00E−08 M: 39.0%
